Data from US6410715 (QUESTCOR PHARMACEUTICALS, dated 2002).

The chains behind the UniProt entries cited, without tags or fusion partners. Residues count along the entry.
UniProt P29338, 2-217 limits assumed: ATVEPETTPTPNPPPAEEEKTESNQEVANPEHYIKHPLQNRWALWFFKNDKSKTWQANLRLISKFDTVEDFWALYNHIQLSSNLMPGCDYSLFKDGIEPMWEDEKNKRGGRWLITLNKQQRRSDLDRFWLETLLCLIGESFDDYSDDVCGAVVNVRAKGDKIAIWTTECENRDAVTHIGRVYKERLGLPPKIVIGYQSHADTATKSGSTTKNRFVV

Target: eIF-4E of rabbit reticulocyte lysate (rabbit, UniProt P29338)
Assay: cell-based or functional assay

B1: GST-4E-BP1 fusion protein (other, not shown: a dimerising Fc or GST; large carriers; small tags and cut ends)
chain: GSSCSQTPSRAIPATRRVVLGDGVQLPPGDYSTTPGGTLFSTTPGGTRIIYDRKFLMECRNSPVTKTPPRDLPTIPGVTSPSSDEPPMEASQSHLRNSPEDKRAGGEESQFEMDI
In the case of B1, the “inhibition of translation of CAT (cap-dependent)” value is reported as ~5 fold.
